Experimental data from US9452152B2, “Fe(III) complex compounds for the treatment and prophylaxis of iron deficiency symptoms and iron deficiency anemias” (Vifor (International) AG, priority 2012, dated 2016).

Test: Comparison of the pH-dependent solubility (photometric iron determination)
Type: physicochemical
Excerpt: The pH was adjusted to 6.5 with a phthalate buffer (0.1 m). […] UV device type SPECORD 205 manufacturer Jena Analytik). This value represents the solubility of the iron complex. If the weighed amount of the iron complex was completely dissolved, the measured value was indicated by the prefix “>”.

With “Tris-(N,N-Dimethyl-3,4-dioxo-4-(pyrrolidine-1-yl)butaneamide)-iron(III) complex [Example 11]” the “Solubility based on amount of iron” value (pH 6.5) was greater than 330 µg/mL and the “optical evaluation: dissolved?” value (water, pH 6.5 (phthalate buffer 0.1 m), 4 h, 25° C.) was “yes”.
